Tested on: human hepatocellular carcinoma cells (HepG2)
Test: MTT cytotoxicity assay, HepG2
Conditions: for IC50: Homo sapiens, HepG2, 48 h, read-out: IC50 (μM) HepG2; for cytotoxicity fold higher than betulin: HepG2, ratio of IC50 values

## C=C(C)[C@@H]1CC[C@]2(CO)CC[C@]3(C)[C@H](CC[C@@H]4[C@@]5(C)CC[C@H](O)C(C)(C)[C@@H]5CC[C@]43C)[C@@H]12 [Compound 1, lup-20(29)-ene-3β,28-diol, reference compound]
  IC50: 20.4 ± 1.22 µM

## C=C(C)[C@@H]1CC[C@]2(/C=N/NC(=O)Nc3ccc(Cl)cc3)CC[C@]3(C)C(CCC4[C@@]5(C)CC[C@H](O)C(C)(C)C5CC[C@]43C)C12 (stereo partly drawn) [Compound 7a, Lup-20(29)-ene-3β-ol-28-N-(4-chlorophenyl)semicarbazide]
  IC50: 11.6 ± 0.62 µM

## C=C(C)[C@@H]1CC[C@]2(/C=N/NC(=O)Nc3ccc(C#N)cc3)CC[C@]3(C)C(CCC4[C@@]5(C)CC[C@H](O)C(C)(C)C5CC[C@]43C)C12 (stereo partly drawn) [Compound 7b, Lup-20(29)-ene-3β-ol-28-N-(4-cyanophenyl)semicarbazide]
  IC50: 15.4 ± 0.75 µM

## C=C(C)[C@@H]1CC[C@]2(/C=N/NC(=O)Nc3ccc(OC)cc3)CC[C@]3(C)C(CCC4[C@@]5(C)CC[C@H](O)C(C)(C)C5CC[C@]43C)C12 (stereo partly drawn) [Compound 7c, Lup-20(29)-ene-3β-ol-28-N-(4-methoxyphenyl)semicarbazide]
  IC50: 46.7 ± 1.68 µM

## C=C(C)[C@@H]1CC[C@]2(/C=N/NC(=O)Nc3ccc(C(F)(F)F)cc3)CC[C@]3(C)C(CCC4[C@@]5(C)CC[C@H](O)C(C)(C)C5CC[C@]43C)C12 (stereo partly drawn) [Compound 7d, Lup-20(29)-ene-3β-ol-28-N-(4-(trifluoromethyl)phenyl)semicarbazide]
  IC50: 12.6 ± 0.67 µM

## C=C(C)[C@@H]1CC[C@]2(/C=N/NC(=O)Nc3cccc(C(F)(F)F)c3)CC[C@]3(C)C(CCC4[C@@]5(C)CC[C@H](O)C(C)(C)C5CC[C@]43C)C12 (stereo partly drawn) [Compound 7e, Lup-20(29)-ene-3β-ol-28-N-(3-(trifluoromethyl)phenyl)semicarbazide]
  cytotoxicity fold higher than betulin: about 2.28 fold
  IC50: 8.93 ± 0.63 µM

## C=C(C)[C@@H]1CC[C@]2(/C=N/NC(=O)Nc3cccc(C)c3)CC[C@]3(C)C(CCC4[C@@]5(C)CC[C@H](O)C(C)(C)C5CC[C@]43C)C12 (stereo partly drawn) [Compound 7f, Lup-20(29)-ene-3β-ol-8-N-(m-tolyl)semicarbazide]
  IC50: 49 ± 1.96 µM

## C=C(C)[C@@H]1CC[C@]2(/C=N/NC(=O)Nc3ccc(Cl)c(C(F)(F)F)c3)CC[C@]3(C)C(CCC4[C@@]5(C)CC[C@H](O)C(C)(C)C5CC[C@]43C)C12 (stereo partly drawn) [Compound 7g, Lup-20(29)-ene-3β-ol-28-N-((3-trifluoromethyl-4-chloro)phenyl)semicarbazide]
  IC50: 11 ± 1.02 µM

## C=C(C)[C@@H]1CC[C@]2(/C=N/NC(=S)Nc3ccc(F)cc3)CC[C@]3(C)C(CCC4[C@@]5(C)CC[C@H](O)C(C)(C)C5CC[C@]43C)C12 (stereo partly drawn) [Compound 8a, Lup-20(29)-ene-3β-ol-28-N-(4-fluorophenyl)thiosemicarbazide]
  IC50: 12.4 ± 0.48 µM

## C=C(C)[C@@H]1CC[C@]2(/C=N/NC(=S)Nc3ccc(Cl)cc3)CC[C@]3(C)C(CCC4[C@@]5(C)CC[C@H](O)C(C)(C)C5CC[C@]43C)C12 (stereo partly drawn) [Compound 8b, Lup-20(29)-ene-3β-ol-28-N-(4-chlorophenyl)thiosemicarbazide]
  IC50: 8.4 ± 0.34 µM

## C=C(C)[C@@H]1CC[C@]2(/C=N/NC(=S)Nc3ccc(C)cc3)CC[C@]3(C)C(CCC4[C@@]5(C)CC[C@H](O)C(C)(C)C5CC[C@]43C)C12 (stereo partly drawn) [Compound 8c, Lup-20(29)-ene-3β-ol-28-N-(p-tolyl)thiosemicarbazide]
  IC50: 40.2 ± 1.28 µM

## C=C(C)[C@@H]1CC[C@]2(/C=N/NC(=S)Nc3ccc(OC)cc3)CC[C@]3(C)C(CCC4[C@@]5(C)CC[C@H](O)C(C)(C)C5CC[C@]43C)C12 (stereo partly drawn) [Compound 8d, Lup-20(29)-ene-3β-ol-28-N-(4-methoxyphenyl)thiosemicarbazide]
  IC50: 32.5 ± 1.17 µM

## C=C(C)[C@@H]1CC[C@]2(/C=N/NC(=S)Nc3ccc(C(C)(C)C)cc3)CC[C@]3(C)C(CCC4[C@@]5(C)CC[C@H](O)C(C)(C)C5CC[C@]43C)C12 (stereo partly drawn) [Compound 8e, Lup-20(29)-ene-3β-ol-28-N-(4-tert-butylphenyl)thiosemicarbazide]
  IC50: > 80 µM

## C=C(C)[C@@H]1CC[C@]2(/C=N/NC(=S)Nc3cccc(Cl)c3)CC[C@]3(C)[C@H](CC[C@@H]4[C@@]5(C)CC[C@H](O)C(C)(C)[C@@H]5CC[C@]43C)[C@@H]12 [Compound 8f, Lup-20(29)-ene-3β-ol-28-N-(3-chlorophenyl)thiosemicarbazide]
  cytotoxicity fold higher than betulin: 2.97 fold
  IC50: 6.87 ± 0.76 µM

## C=C(C)[C@@H]1CC[C@]2(/C=N/NC(=S)Nc3ccc(Cl)c(Cl)c3)CC[C@]3(C)C(CCC4[C@@]5(C)CC[C@H](O)C(C)(C)C5CC[C@]43C)C12 (stereo partly drawn) [Compound 8g, Lup-20(29)-ene-3β-ol-28-N-(3,4-dichlorophenyl)thiosemicarbazide]
  IC50: 8.74 ± 0.48 µM

## CO[C@@]12[C@H](COC(N)=O)C3=C(C(=O)C(C)=C(N)C3=O)N1C[C@@H]1N[C@@H]12 [Mitomycin, Mitomycin C, reference compound]
  IC50: 27.4 ± 1.24 µM

From publication PMC8587101, “Design and Synthesis of Novel Betulin Derivatives Containing Thio-/Semicarbazone Moieties as Apoptotic Inducers through Mitochindria-Related Pathways” (Molecules, 2021)
